From patent US20060160798A1, “Viral polymerase inhibitors” (Boehringer Ingelheim (Canada) Ltd., priority 2001, published 2006)
pIC50: −log10 of the molar value.

Target: hepatitis C virus RNA dependant polymerase (NS5B) (Hepatitis C virus genotype 1b, UniProt P26663)
Assay: biochemical
Details: IC50, HCV NS5B polymerase, 10 nM enzyme, 1.5 hours at room temperature

Row | SMILES | pIC50
1 | CN1CCC(NC(=O)c2ccc3c(C4CCCCC4)c(-c4ccoc4)[nH]c3c2)(C(=O)Nc2ccc(/C=C/C(=O)O)cc2)CC1 [Entry 2052] | > 6.30
2 | CC(C)(NC(=O)c1ccc2c(C3CCCCC3)c(-c3ccoc3)[nH]c2c1)C(=O)Nc1ccc(-c2ccc(C(=O)O)o2)cc1 [Entry 2053] | > 6.30
3 | CC(=O)N1CCC(NC(=O)c2ccc3c(C4CCCCC4)c(-c4ccoc4)[nH]c3c2)(C(=O)Nc2ccc(/C=C/C(=O)O)cc2)CC1 [Entry 2055] | > 6.30
4 | C/C(=C\C(=O)O)c1ccc(NC(=O)C2(NC(=O)c3ccc4c(C5CCCCC5)c(-c5ccoc5)[nH]c4c3)CCCC2)cc1 [Entry 2056] | > 6.30
5 | O=C(O)/C=C/c1ccc(NC(=O)C2(NC(=O)c3ccc4c(C5CCCCC5)c(-c5ccoc5)[nH]c4c3)CCC2)cc1 [Entry 2057] | > 6.30
6 | CC(C)(NC(=O)c1ccc2c(C3CCCCC3)c(-c3ccccc3)[nH]c2c1)C(=O)Nc1ccc(/C=C/C(=O)O)cc1 [Entry 2058] | > 6.30
7 | CC(C)(NC(=O)c1ccc2c(C3CCCCC3)c(-c3ccsc3)[nH]c2c1)C(=O)Nc1ccc(/C=C/C(=O)O)cc1 [Entry 2059] | > 6.30
8 | NC(=O)/C=C/c1ccc(NC(=O)C2(NC(=O)c3ccc4c(C5CCCCC5)c(-c5ccoc5)[nH]c4c3)CCCC2)cc1 [Entry 2060] | > 6.30
9 | CC(C)(NC(=O)c1ccc2c(C3CCCCC3)c(-c3ccoc3)[nH]c2c1)C(=O)Nc1ccc(-c2csc(C(=O)O)n2)cc1 [Entry 2061] | > 6.30
10 | CC(C)(NC(=O)c1ccc2c(C3CCCCC3)c(-c3ccoc3)n(Cc3ccc(C(=O)O)cc3)c2c1)C(=O)Nc1ccc(/C=C/C(=O)O)cc1 [Entry 2063] | > 6.30
11 | NCC[C@H](NC(=O)c1ccc2c(C3CCCCC3)c(-c3ccoc3)[nH]c2c1)C(=O)Nc1ccc(/C=C/C(=O)O)cc1 [Entry 2064] | > 6.30
12 | CCN(CC)CC[C@H](NC(=O)c1ccc2c(C3CCCCC3)c(-c3ccoc3)[nH]c2c1)C(=O)Nc1ccc(/C=C/C(=O)O)cc1 [Entry 2065] | > 6.30
13 | CCN1CCC(NC(=O)c2ccc3c(C4CCCCC4)c(-c4ccoc4)[nH]c3c2)(C(=O)Nc2ccc(-c3csc(C(=O)O)n3)cc2)CC1 [Entry 2067] | > 6.30
14 | O=C(O)/C=C/c1ccc(NC(=O)C2(NC(=O)c3ccc4c(C5CCCCC5)c(-c5ccoc5)[nH]c4c3)CCOCC2)cc1 [Entry 2069] | > 6.30
15 | Cn1c(-c2ccccn2)c(C2CCCCC2)c2ccc(C(=O)NC(C)(C)C(=O)Nc3ccc(-c4ccc(C(=O)O)o4)cc3)cc21 [Entry 2070] | > 6.30
16 | Cn1c(-c2ccccn2)c(C2CCCCC2)c2ccc(C(=O)NC(C)(C)C(=O)Nc3ccc(-c4nc(C(=O)O)cs4)cc3)cc21 [Entry 2071] | > 6.30
17 | Cn1c(-c2ccccn2)c(C2CCCCC2)c2ccc(C(=O)NC(C)(C)C(=O)Nc3ccc(N)cc3)cc21 [Entry 2072, 3-Cyclohexyl-1-methyl-2-pyridin-2-yl-1H-indole-6-carboxylic acid[1-(4-amino-phenylcarbamoyl)-1-methyl-ethyl]-amide] | > 6.30
18 | Cn1c(-c2ccccn2)c(C2CCCCC2)c2ccc(C(=O)NC(C)(C)C(=O)Nc3ccc(-c4ccc(C(N)=O)o4)cc3)cc21 [Entry 2073] | > 6.30
19 | Cn1c(-c2ccccn2)c(C2CCCCC2)c2ccc(C(=O)NC(C)(C)C(=O)Nc3ccc(-c4nc(C(N)=O)cs4)cc3)cc21 [Entry 2074] | > 6.30
20 | Cn1c(C(N)=O)cc2cc(NC(=O)C(C)(C)NC(=O)c3ccc4c(C5CCCCC5)c(-c5ccccn5)n(C)c4c3)ccc21 [Entry 2075] | > 6.30
21 | CNC(=O)C(=O)Nc1ccc(NC(=O)C(C)(C)NC(=O)c2ccc3c(C4CCCCC4)c(-c4ccccn4)n(C)c3c2)cc1 [Entry 2076] | > 6.30
22 | Cn1c(-c2ccccn2)c(C2CCCCC2)c2ccc(C(=O)NC(C)(C)C(=O)Nc3ccc(NC(=O)C(N)=O)cc3)cc21 [Entry 2077] | > 6.30
23 | CCN1CCC(NC(=O)c2ccc3c(C4CCCCC4)c(-c4ccoc4)[nH]c3c2)(C(=O)Nc2ccc(/C=C/C(N)=O)cc2)CC1 [Entry 2078] | > 6.30
24 | CCN1CCC(NC(=O)c2ccc3c(C4CCCCC4)c(-c4ccoc4)[nH]c3c2)(C(=O)Nc2ccc(CCC(=O)O)cc2)CC1 [Entry 2079] | > 6.30
25 | CC(C)N1CCC(NC(=O)c2ccc3c(C4CCCCC4)c(-c4ccoc4)[nH]c3c2)(C(=O)Nc2ccc(/C=C/C(=O)O)cc2)CC1 [Entry 2086] | > 6.30
26 | CCN1CCC(NC(=O)c2ccc3c(C4CCCCC4)c(-c4ccoc4)[nH]c3c2)(C(=O)Nc2ccc(/C=C/C(=O)O)cc2)CC1 [Entry 2088] | > 6.30

Row | SMILES | pIC50
27 | CC(C)(NC(=O)c1ccc2c(C3CCCCC3)c(-c3ccccn3)[nH]c2c1)C(=O)Nc1ccc(/C=C/C(=O)O)cc1 [Entry 2089] | > 6.30
28 | Cn1c(-c2ccccn2)c(C2CCCCC2)c2ccc(C(=O)NC3(C(=O)Nc4ccc(/C=C/C(=O)O)cc4)CCC3)cc21 [Entry 2090] | > 6.30
29 | CCN1CCC(NC(=O)c2ccc3c(C4CCCCC4)c(-c4ccccn4)n(C)c3c2)(C(=O)Nc2ccc3c(c2)cc(C(=O)O)n3C)CC1 [Entry 2092] | > 6.30
30 | Cn1c(C(=O)O)cc2cc(NC(=O)C(C)(C)NC(=O)c3ccc4c(C5CCCCC5)c(-c5ccccn5)n(C)c4c3)ccc21 [Entry 2093] | > 6.30
31 | Cn1c(-c2ccccn2)c(C2CCCCC2)c2ccc(C(=O)NC(C)(C)C(=O)Nc3ccc(NC(=O)C(=O)O)cc3)cc21 [Entry 2094] | > 6.30
32 | Cn1c(-c2ccccn2)c(C2CCCCC2)c2ccc(C(=O)NC(C)(C)C(=O)Nc3ccc(NC(=O)C(=O)NO)cc3)cc21 [Entry 2095] | > 6.30
33 | Cn1c(-c2cccc[n+]2[O-])c(C2CCCCC2)c2ccc(C(=O)NC(C)(C)C(=O)Nc3ccc(/C=C/C(=O)O)cc3)cc21 [Entry 2097] | > 6.30
34 | CCN1CCC(NC(=O)c2ccc3c(C4CCCCC4)c(-c4ccccn4)n(C)c3c2)(C(=O)Nc2ccc3sc(C(=O)O)c(C)c3c2)CC1 [Entry 2099] | > 6.30
35 | CCN1CCC(NC(=O)c2ccc3c(C4CCCCC4)c(-c4ccoc4)[nH]c3c2)(C(=O)Nc2ccc(CCC(N)=O)cc2)CC1 [Entry 2100] | 5.00 to 6.00
36 | CCN1CCC(NC(=O)c2ccc3c(C4CCCCC4)c(-c4ccccn4)n(C)c3c2)(C(=O)Nc2ccc(-c3ccc(C(=O)O)nc3)cc2)CC1 [Entry 2101] | > 6.30
37 | Cn1c(-c2cccc([N+](=O)[O-])c2)c(C2CCCCC2)c2ccc(C(=O)NC(C)(C)C(=O)Nc3ccc(/C=C/C(=O)O)cc3)cc21 [Entry 2102] | > 6.30
38 | Cn1c(-c2cncc(C(N)=O)c2)c(C2CCCCC2)c2ccc(C(=O)NC(C)(C)C(=O)Nc3ccc(/C=C/C(=O)O)cc3)cc21 [Entry 2103] | > 6.30
39 | CC(=O)Nc1ccc(-c2c(C3CCCCC3)c3ccc(C(=O)NC(C)(C)C(=O)Nc4ccc(/C=C/C(=O)O)cc4)cc3n2C)cc1C [Entry 2104] | > 6.30
40 | CC(=O)N1CCCC(NC(=O)c2ccc3c(C4CCCCC4)c(-c4ccccn4)n(C)c3c2)(C(=O)Nc2ccc(/C=C/C(=O)O)cc2)C1 (centres unmarked) [Entry 2105] | > 6.30
41 | CC(=O)N1CCC(NC(=O)c2ccc3c(C4CCCCC4)c(-c4ccccn4)n(C)c3c2)(C(=O)Nc2ccc(C=CC(=O)O)cc2)C1 (centres unmarked) [Entry 2106] | > 6.30
42 | Cn1c(-c2ccccn2)c(C2CCCCC2)c2ccc(C(=O)NC3(C(=O)Nc4ccc5[nH]c(C(=O)O)c(I)c5c4)CCCNC3)cc21 (centres unmarked) [Entry 2110] | > 6.30
43 | Cc1c(C(=O)O)sc2ccc(NC(=O)C3(NC(=O)c4ccc5c(C6CCCCC6)c(-c6ccccn6)n(C)c5c4)CCC3)cc12 [Entry 2111] | > 6.30
44 | Cc1c(C(N)=O)sc2ccc(NC(=O)C3(NC(=O)c4ccc5c(C6CCCCC6)c(-c6ccccn6)n(C)c5c4)CCC3)cc12 [Entry 2112] | > 6.30
45 | Cn1c(-c2ccccn2)c(C2CCCCC2)c2ccc(C(=O)NC3(C(=O)Nc4ccc(-c5cnc(N)nc5)cc4)CCC3)cc21 [Entry 2113] | 6.00 to 6.30
46 | CN1CCCC(NC(=O)c2ccc3c(C4CCCCC4)c(-c4ccccn4)n(C)c3c2)(C(=O)Nc2ccc(/C=C/C(=O)O)cc2)C1 (centres unmarked) [Entry 2114] | > 6.30
47 | CN1CC[C@@](NC(=O)c2ccc3c(C4CCCCC4)c(-c4ccccn4)n(C)c3c2)(C(=O)Nc2ccc(/C=C/C(=O)O)cc2)C1 [Entry 2116] | > 6.30
48 | CN1CC[C@](NC(=O)c2ccc3c(C4CCCCC4)c(-c4ccccn4)n(C)c3c2)(C(=O)Nc2ccc(/C=C/C(=O)O)cc2)C1 [Entry 2118] | > 6.30
49 | Cn1c(-c2ccoc2)c(C2CCCC2)c2ccc(C(=O)NC3(C(=O)Nc4ccc(/C=C/C(=O)O)cc4)CC3)cc21 [Entry 3004] | > 6.30
50 | Cn1c(-c2ccccc2)c(C2CCCCC2)c2ccc(C(=O)NC3(C(=O)Nc4ccc(/C=C/C(=O)O)cc4)CCCC3)cc21 [Entry 4001] | 6.00 to 6.30
51 | O=C(O)/C=C/c1ccc(NC(=O)C2(NC(=O)c3ccc4c(C5CCCCC5)c(-c5ccccc5)[nH]c4c3)CCCC2)cc1 [Entry 4002] | 6.00 to 6.30
52 | O=C(O)/C=C/c1ccc(N2CC[C@H](NC(=O)c3ccc4c(C5CCCCC5)c(-c5ccoc5)[nH]c4c3)C2=O)cc1 [Entry 5001] | 5.00 to 6.00

Same assay, conditions: IC50, Table 6

Row | SMILES | pIC50
53 | CC(=O)N1CCC(NC(=O)c2ccc3c(C4CCCC4)c(-c4ccccn4)n(C)c3c2)(C(=O)Nc2ccc(/C=C/C(=O)O)cc2)CC1 [Entry 6001] | > 6.30
54 | CC(=O)N1CCCC(NC(=O)c2ccc3c(C4CCCC4)c(-c4ccccn4)n(C)c3c2)(C(=O)Nc2ccc(/C=C/C(=O)O)cc2)C1 (centres unmarked) [Entry 6002] | > 6.30
55 | Cn1c(-c2csc(-c3cccnc3)n2)c(C2CCCC2)c2ccc(C(=O)NC(C)(C)C(=O)Nc3ccc(/C=C/C(=O)O)cc3)cc21 [Entry 6003] | > 6.30
56 | Cn1c(-c2csc(Nc3ccccc3)n2)c(C2CCCC2)c2ccc(C(=O)NC(C)(C)C(=O)Nc3ccc(/C=C/C(=O)O)cc3)cc21 [Entry 6004] | 6.00 to 6.30
57 | CC(=O)Nc1ccc(-c2c(C3CCCC3)c3ccc(C(=O)NC(C)(C)C(=O)Nc4ccc(/C=C/C(=O)O)cc4)cc3n2C)cc1C [Entry 6005] | > 6.30
58 | CC(=O)Nc1ccc(-c2c(C3CCCC3)c3ccc(C(=O)NC4(C(=O)Nc5ccc(/C=C/C(=O)O)cc5)CCC4)cc3n2C)cc1C [Entry 6006] | > 6.30
59 | Cn1c(-c2csc(NC(=O)CC(C)(C)C)n2)c(C2CCCC2)c2ccc(C(=O)NC(C)(C)C(=O)Nc3ccc(/C=C/C(=O)O)cc3)cc21 [Entry 6007] | > 6.30
